This is an account of results in patent US6716833B2, “Acetylenic α-amino acid-based sulfonamide hydroxamic acid tace inhibitors” (priority 1999, dated 2004).

The chains behind the UniProt entries cited, without tags or fusion partners. Residues count along the entry.
UniProt P78536, 215-824, species assumed: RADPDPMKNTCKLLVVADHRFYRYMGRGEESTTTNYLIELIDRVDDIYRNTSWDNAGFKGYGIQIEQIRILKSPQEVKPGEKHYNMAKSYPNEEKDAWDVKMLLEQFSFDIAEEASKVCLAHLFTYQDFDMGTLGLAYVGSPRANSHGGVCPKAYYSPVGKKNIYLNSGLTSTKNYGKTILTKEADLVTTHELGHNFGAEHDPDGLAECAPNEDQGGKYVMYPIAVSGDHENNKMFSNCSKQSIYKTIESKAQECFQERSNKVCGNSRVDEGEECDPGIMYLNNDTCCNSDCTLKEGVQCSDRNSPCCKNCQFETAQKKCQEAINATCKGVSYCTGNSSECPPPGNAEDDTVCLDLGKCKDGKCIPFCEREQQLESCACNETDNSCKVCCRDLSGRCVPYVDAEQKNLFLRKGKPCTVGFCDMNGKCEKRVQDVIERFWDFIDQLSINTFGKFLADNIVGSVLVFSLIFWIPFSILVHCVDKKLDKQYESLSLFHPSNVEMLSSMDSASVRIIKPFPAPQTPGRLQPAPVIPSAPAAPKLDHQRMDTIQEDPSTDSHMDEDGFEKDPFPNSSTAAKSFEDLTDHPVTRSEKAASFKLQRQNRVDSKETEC

Structures are written as SMILES. Read-outs that look alike come from different tables or passages of the source.

One assay deals with THP-1 cells. As to the kind of experiment: THP-1 soluble protein assay, soluble TNF-α (ELISA). It is filed as cell-based. The following applies: Homo sapiens, THP-1, 3 μM. On the technique in general: An ELISA detects its analyte on a solid surface through an enzyme-linked reagent.
In the next assay the target is MMP-13 (Homo sapiens, UniProt P45452). In words: MMP-13 inhibition (thiopeptide or fluorescent peptide substrate). It is filed as biochemical.
Assay [1] concerns the target TNF-α converting enzyme (TACE) (Homo sapiens, UniProt P78536). In words: TACE inhibition (fluorescent peptidyl substrate). The format is biochemical.
Another assay concerns the target T1, MMP-1 (Homo sapiens, UniProt P03956).
T1 sequence (P03956 100-469): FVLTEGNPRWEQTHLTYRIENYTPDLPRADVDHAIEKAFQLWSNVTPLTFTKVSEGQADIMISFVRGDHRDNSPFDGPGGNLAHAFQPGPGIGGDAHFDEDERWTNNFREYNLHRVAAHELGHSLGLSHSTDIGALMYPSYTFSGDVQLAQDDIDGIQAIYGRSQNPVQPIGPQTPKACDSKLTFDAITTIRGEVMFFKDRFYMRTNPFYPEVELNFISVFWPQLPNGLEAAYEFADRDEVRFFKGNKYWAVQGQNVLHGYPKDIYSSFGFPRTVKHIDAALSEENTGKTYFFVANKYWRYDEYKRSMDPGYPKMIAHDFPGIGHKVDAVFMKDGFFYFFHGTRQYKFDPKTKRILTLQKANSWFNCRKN
In words: MMP-1 inhibition (thiopeptide or fluorescent peptide substrate). It is filed as biochemical. The following applies: MMP-1 IC50.

For orientation: inhibition means the share of the control response that was lost under treatment. A higher inhibition goes with a response far below the control. The IC50 is the concentration that gives 50% inhibition. `CC#CCOc1ccc(S(=O)(=O)N2CCN(Cc3ccccc3)CCC2C(=O)NO)cc1` (centres unmarked) [Example 290, 1-Benzyl-4-{[4-(2-butynyloxy)phenyl]sulfonyl}-N-hydroxy-1,4-diazepane-5-carboxamide] had an inhibition at 3 µM with THP-1 cells of 45%. Besides, on MMP-13 (MMP-13 IC50), the IC50 stood at 7.5 nM.

`CC#CCOc1ccc(S(=O)(=O)N(C)C(CSCc2cccnc2)C(=O)NO)cc1` (centres unmarked) [Example 155, 2-[(4-but-2-ynyloxy-Benenesulfonyl)-methyl-amino]-N-hydroxy-3-(pyridin-3-ylmethylsulfanyl)-butyramide] registered an IC50 in assay [1] (TACE IC50) of 5.9 nM.

In the case of `CC#CCOc1ccc(S(=O)(=O)N[C@H](CCCNC(=O)CCCCCCC/C=C\CCCCCCCC)C(=O)NO)cc1` [Example 367, (Z)-N-[(4R)-4-({[4-(But-2-ynyloxy)phenyl]sulfonyl}amino)-5-(hydroxyamino)-5-oxopentyl]octadec-9-enamide], in assay [1] (IC 50 nM (In Vitro Inhibition of TACE), Table 15), the IC50 came to 38 nM.

Regarding `CC#CCOc1ccc(S(=O)(=O)N(C)C(C(=O)NO)C(C)(C)SCc2cccnc2)cc1` (centres unmarked) [Example 152, 2-[(4-but-2-ynyloxy-Benenesulfonyl)-methyl-amino]-N-hydroxy-3-methyl-3-(pyridin-3-ylmethylsulfanyl)-butyramide], at MMP-1, the IC50 stood at 8.7 nM.

For `CC#CCOc1ccc(S(=O)(=O)NC(C(=O)NO)c2ccc(OCCNC)cc2)cc1` (centres unmarked) [Example 204], it took 146 nM to reach half-maximal inhibition at MMP-13 (MMP-13 IC50) (IC50).

Consider `CC#CCOc1ccc(S(=O)(=O)NCC(=O)NO)cc1` [Example 25, 2-(4-but-2-ynyloxy-Benzenesulfonylamino)-N-hydroxy-acetamide], for which the IC50 at MMP-13 (read-out: MMP-13 IC50) came out at 185 nM.

Compound `CC#CCOc1ccc(S(=O)(=O)N(C)C(C(=O)NO)c2ccc(OCCNC)cc2)cc1` (centres unmarked) [Example 192, 2-({[4-(2-Butynyloxy)phenyl]sulfonyl}(methyl)amino)-N-hydroxy-2-{4-[2-(methylamino)ethoxy]phenyl}acetamide] gave an IC50 on MMP-13 (MMP-13 IC50) of 27 nM.
